# Test results taken from PubChem BioAssay AID463079 (The Scripps Research Institute Molecular Screening Center, 2010).
# The entries are a selection whose mix differs from that of the whole data set. Calls of active or inactive are those of the source.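 Rule for the calls: active = inhibition above that plate's mean sample inhibition plus 3 SD (cut at about 26% in these data); inactive = the rest.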
# Experiment: ATP-evoked calcium signal inhibitors, parental CHO, primary screen, counter-screen for OX1R antagonist project, cell-based, fluorescence, Fluo-8 calcium dye (AID 463079);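 note: 0% = ATP-challenged DMSO wells and 100% = DMSO wells without ATP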
# Details: parental CHO-K1, ATP-induced calcium, Fluo-8 fluorescence; at 5.6 µM; hits give high values
# Summary of the method: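 Assay system – parental CHO cells · Reagent – ATP stimulus · Detection – intracellular calcium via Fluo-8 no-wash fluorescent dye · Evaluation – percent inhibition of ATP-evoked calcium rise, normalized to controls · Controls – ATP wells versus no-ATP DMSO wells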
row,SMILES,inhibition
1,CCCOc1ccc(NP(C)(=O)Oc2ccc(Cl)cc2)cc1 (stereo unspecified),inactive: -18%
